Drawing on PubChem BioAssay AID602254 (Broad Institute, 2012), this text covers activity change, negative = inhibition for one compound.

Only a part is listed here, and it is no random draw. Entries with a potency or affinity are not part of this list. Calls of active or inactive are those of the source.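 Rule for the calls: active = fitted half-maximal concentration no higher than twice the top valid tested dose, with signal falling; inconclusive = flat curve with 30 to 70% inhibition, or poor fit; inactive = the rest.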

This experiment deals with Golgi-associated PDZ and coiled-coil motif-containing protein (Homo sapiens) (UniProt Q9HD26). The experiment is described as follows: blockers of CAL PDZ–TMR peptide complex – biochemical, fluorescence polarization, untagged CAL PDZ, cherry-pick, set 2, dose response (AID 602254).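 Note: 0% = DMSO neutral control and -100% = unlabeled peptide PRC23 positive control; more negative means stronger blocking of peptide binding.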 Conditions: Purified CAL PDZ; at 60 µM (top of the series). (Polarisation of emitted light reports the rotation of a fluorescent probe.)
Regarding `COc1ccc(N/C(=N/P(=O)(N2CCOCC2)N2CCOCC2)N2CCOCC2)cc1`, the activity change, negative = inhibition is inactive: 0.226%.
